System: Nc1ncnc2c1ncn2[C@@H]1O[C@H](COP(=O)(O)OP(=O)(O)OP(=O)(O)O)[C@@H](O)[C@H]1O
Assay: purified protein
Conditions: saturating 17mer ssDNA ODN1 (20 μM nucleotides), 10 nM Bad, 1 mM MgCl2, 50 mM NaCl, pH 8.0, 25 °C

Substance: Bad (bacterial DNA2-like helicase-nuclease) (Geobacillus stearothermophilus)
- Km: 223 ± 24 µM
- kcat: 101 ± 4 s⁻¹

Source: paper PMC7430649
